By UniProt entry, the sequences of proteins in these tests, tags left out. Residues count along the entry.
UniProt P06756, 31-1048: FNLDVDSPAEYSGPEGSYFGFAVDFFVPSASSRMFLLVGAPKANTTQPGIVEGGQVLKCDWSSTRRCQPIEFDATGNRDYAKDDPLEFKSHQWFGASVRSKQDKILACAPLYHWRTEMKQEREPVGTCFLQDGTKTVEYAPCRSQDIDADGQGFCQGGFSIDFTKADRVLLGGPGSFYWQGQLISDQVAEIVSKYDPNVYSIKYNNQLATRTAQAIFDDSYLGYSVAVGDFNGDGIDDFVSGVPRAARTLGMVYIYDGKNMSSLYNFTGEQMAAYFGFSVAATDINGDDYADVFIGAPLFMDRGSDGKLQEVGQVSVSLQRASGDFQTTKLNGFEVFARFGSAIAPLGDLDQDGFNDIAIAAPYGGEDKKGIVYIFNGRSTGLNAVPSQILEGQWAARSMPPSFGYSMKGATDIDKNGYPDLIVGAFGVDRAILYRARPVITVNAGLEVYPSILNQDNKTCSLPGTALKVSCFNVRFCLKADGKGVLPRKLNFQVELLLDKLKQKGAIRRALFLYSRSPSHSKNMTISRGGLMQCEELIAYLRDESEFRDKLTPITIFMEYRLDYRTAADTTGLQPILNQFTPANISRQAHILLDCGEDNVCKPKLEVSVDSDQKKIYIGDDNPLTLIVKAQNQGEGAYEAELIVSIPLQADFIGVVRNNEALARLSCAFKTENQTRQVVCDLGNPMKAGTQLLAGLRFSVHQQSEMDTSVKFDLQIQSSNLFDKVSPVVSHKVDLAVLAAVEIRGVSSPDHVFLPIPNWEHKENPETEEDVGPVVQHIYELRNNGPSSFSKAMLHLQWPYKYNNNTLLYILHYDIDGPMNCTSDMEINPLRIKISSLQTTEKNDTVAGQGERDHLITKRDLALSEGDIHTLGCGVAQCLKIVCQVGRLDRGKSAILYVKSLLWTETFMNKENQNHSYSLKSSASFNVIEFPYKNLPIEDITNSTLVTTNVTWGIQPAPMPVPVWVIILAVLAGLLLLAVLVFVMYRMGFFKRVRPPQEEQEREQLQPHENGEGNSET
UniProt P06756, 31-992 limits assumed: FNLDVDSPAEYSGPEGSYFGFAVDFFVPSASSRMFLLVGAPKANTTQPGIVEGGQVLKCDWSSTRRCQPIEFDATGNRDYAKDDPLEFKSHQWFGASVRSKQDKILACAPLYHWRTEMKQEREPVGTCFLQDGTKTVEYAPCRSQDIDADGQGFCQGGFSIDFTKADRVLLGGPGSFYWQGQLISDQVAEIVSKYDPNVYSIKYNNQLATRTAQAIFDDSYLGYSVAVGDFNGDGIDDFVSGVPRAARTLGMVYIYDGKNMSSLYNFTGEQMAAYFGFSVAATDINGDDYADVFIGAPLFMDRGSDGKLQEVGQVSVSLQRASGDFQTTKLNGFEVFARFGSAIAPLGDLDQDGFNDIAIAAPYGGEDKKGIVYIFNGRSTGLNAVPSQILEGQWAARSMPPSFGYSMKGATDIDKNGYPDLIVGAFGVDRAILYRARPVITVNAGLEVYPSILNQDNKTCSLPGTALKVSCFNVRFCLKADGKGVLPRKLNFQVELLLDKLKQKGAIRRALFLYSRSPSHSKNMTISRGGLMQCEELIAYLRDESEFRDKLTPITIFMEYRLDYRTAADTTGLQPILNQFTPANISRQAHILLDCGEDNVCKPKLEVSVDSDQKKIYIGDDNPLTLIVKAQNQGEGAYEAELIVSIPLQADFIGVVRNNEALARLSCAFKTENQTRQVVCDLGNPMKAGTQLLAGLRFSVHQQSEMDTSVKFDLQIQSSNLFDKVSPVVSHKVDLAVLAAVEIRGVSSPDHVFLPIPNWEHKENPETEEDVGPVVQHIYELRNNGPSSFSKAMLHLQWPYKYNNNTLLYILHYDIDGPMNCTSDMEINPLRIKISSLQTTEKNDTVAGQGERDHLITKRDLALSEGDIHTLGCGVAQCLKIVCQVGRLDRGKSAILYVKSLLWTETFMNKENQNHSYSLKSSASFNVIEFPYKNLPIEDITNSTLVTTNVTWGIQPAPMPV
UniProt P18564, 22-788: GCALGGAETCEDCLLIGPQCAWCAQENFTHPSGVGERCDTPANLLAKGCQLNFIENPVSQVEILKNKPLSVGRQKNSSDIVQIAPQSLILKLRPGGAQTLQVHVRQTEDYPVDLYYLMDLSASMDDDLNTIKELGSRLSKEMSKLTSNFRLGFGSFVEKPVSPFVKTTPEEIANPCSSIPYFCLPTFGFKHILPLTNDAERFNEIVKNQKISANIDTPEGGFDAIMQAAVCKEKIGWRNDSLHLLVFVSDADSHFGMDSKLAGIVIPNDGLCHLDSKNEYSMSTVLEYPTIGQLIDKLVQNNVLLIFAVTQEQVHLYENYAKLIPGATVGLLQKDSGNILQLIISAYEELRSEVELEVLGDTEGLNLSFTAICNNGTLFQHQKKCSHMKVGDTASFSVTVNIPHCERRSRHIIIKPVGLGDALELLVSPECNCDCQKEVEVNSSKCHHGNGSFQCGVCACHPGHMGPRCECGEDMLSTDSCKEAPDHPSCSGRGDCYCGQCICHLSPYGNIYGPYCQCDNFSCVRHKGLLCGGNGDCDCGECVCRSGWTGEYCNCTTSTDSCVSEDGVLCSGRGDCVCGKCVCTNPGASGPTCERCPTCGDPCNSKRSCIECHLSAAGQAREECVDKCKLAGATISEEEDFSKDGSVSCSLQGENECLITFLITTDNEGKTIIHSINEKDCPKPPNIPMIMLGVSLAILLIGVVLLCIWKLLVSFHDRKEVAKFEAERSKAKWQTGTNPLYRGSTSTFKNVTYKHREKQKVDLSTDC
UniProt P18564, 22-709 limits assumed: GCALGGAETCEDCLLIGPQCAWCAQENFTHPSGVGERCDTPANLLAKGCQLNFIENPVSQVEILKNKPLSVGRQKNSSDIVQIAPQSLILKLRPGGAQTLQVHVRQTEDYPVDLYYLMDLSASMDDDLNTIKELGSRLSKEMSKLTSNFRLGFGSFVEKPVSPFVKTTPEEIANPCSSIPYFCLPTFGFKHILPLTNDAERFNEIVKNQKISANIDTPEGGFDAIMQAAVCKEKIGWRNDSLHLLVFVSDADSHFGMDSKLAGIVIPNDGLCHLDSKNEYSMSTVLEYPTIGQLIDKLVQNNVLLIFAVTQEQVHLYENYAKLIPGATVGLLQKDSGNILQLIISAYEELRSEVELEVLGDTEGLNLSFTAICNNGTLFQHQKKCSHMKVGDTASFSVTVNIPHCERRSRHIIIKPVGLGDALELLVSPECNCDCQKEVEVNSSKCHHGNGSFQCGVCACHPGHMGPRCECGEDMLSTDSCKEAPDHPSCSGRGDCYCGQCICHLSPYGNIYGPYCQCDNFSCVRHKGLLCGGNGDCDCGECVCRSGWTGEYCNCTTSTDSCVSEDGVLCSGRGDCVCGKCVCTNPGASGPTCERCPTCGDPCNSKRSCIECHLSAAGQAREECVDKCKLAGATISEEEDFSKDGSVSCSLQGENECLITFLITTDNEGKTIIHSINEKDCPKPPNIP

In patent US8927501B2, “αvβ6 peptide ligands and their uses” (priority 2005, dated 2015):

How the values were obtained:
αvβ6 = molecular target: T1, αvβ6 (Homo sapiens, UniProt P06756+P18564); assay: Cell adhesion assay: αvβ6-dependent adhesion of VB6 cells to LAP; format: cell-based
T1 construct: endogenous in cells; host or cells: VB6 human oral squamous cell carcinoma

rsαvβ6 = rsαvβ6 (Homo sapiens, UniProt P06756+P18564); assay: biochemical; format: binding

CC(C)C[C@H](NC(=O)[C@H](CC(=O)O)NC(=O)CNC(=O)[C@H](CCCNC(=N)N)NC(=O)[C@H](CC(C)C)NC(=O)[C@H](CC(N)=O)NC(=O)[C@@H]1CCCN1C(=O)[C@@H](NC(=O)[C@H](C)NC(=O)[C@@H](N)CC(N)=O)C(C)C)C(=O)N[C@@H](CCC(N)=O)C(=O)N[C@H](C(=O)N[C@@H](CC(C)C)C(=O)N[C@@H](C)C(=O)N[C@@H](CCC(N)=O)C(=O)N[C@@H](CCCCN)C(=O)N[C@H](C(=O)N[C@@H](C)C(=O)N[C@@H](CCCNC(=N)N)C(=O)N[C@H](C(=O)O)[C@@H](C)O)C(C)C)C(C)C [A20FMDV2]
IC50 (αvβ6): 1540 ± 400 nM
IC50 (rsαvβ6): 15.6 nM
